From the supplement of paper PMC4858399

What was measured:
Conditions in all cases: exposure time 48 h
[1] = tested on: Caenorhabditis elegans N2; experiment: mean nematode size ln(EXT) after 48 h, plate-adjusted (DMSO control set to 6) (ln(EXT), control-adjusted); higher = larger nematodes / less growth inhibition
Outline: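 Synchronised C. elegans N2 L1 larvae were grown for 48 h at 20°C in K-medium containing killed OP50, 1% DMSO and 0.5–200 µM chemical, at 50 per well and 4–6 wells per treatment. The Biosort recorded extinction for each worm, and a growth model removed debris. Worm size was obtained by natural-logging these values and averaging them per well. For plate adjustment, the vehicle control mean was subtracted and 6 was added.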

[2] = tested on: Caenorhabditis elegans N2; experiment: AC50 for larval growth inhibition (Hill fit); higher = less potent
Outline: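 AC50 values come from a constrained Hill fit by weighted genetic-algorithm regression and are censored when out of range. The fit used only wells with at least 10 worms. Each well of a 96-well plate held 50 synchronised C. elegans N2 L1 larvae in K-medium with killed OP50, 1% DMSO and 0.5–200 µM chemical for 48 h at 20°C. A COPAS Biosort recorded each worm's size as extinction, which was log-transformed and averaged per well.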

[3] = tested on: Caenorhabditis elegans N2; experiment: lowest effective concentration for larval growth inhibition (size below effect threshold); higher = less potent
Outline: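 Chemical exposure ran for 48 h at 20°C: 50 C. elegans N2 L1 larvae per 96-well in K-medium with killed bacteria, 1% DMSO and 0.5, 1, 5, 10, 50, 100 or 200 µM chemical. Extinction of each worm, read as size on the Biosort, was log-transformed and averaged by well. The lowest effective concentration is the first dose whose plate-adjusted mean size is below a fixed value and remains so at all higher doses; the value is 5.665.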

CCOc1nc(C(Cl)(Cl)Cl)ns1 [Etridiazole]
[1]
Conditions	mean nematode size ln(EXT) (ln)
0.5 µM	5.72
1 µM	5.81
5 µM	5.8
10 µM	5.83
50 µM	5.57
100 µM	5.59
200 µM	4.58

Conditions	AC50 for larval growth inhibition [µM]	lowest effective concentration [µM]
[2]	> 200	–
[3]	–	50
